## Yeast mating assay 1: variants of the scFv Ab-14

The target is the same throughout: PDVDLGDISGINAS, from the HR2 region of SARS-CoV-2 spike.

Parent scFv Ab-14: VH joined to VL by a 15-residue (Gly4Ser)3 linker. Changes lie in the light chain CDRs alone.
VH: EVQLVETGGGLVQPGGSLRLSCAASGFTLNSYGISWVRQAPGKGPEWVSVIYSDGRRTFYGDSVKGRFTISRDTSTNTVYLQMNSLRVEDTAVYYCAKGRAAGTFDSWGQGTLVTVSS
VL: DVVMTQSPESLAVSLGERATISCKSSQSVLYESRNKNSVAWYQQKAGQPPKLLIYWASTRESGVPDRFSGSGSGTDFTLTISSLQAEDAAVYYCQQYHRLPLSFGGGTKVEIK

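Phage display of a naive human antibody library on the peptide gave the parent. The library (AAYL50) carries one to three amino acid substitutions per variant, with no insertions or deletions. The scFvs were displayed on barcoded MATa yeast, the peptide on MATalpha yeast. Pairs that bind mate more often; barcode pairs of the diploids are counted by sequencing. Each replicate has its own calibration line, from reference interactions of the BCL2 family. There are three technical replicates.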

Substitutions are numbered in sequence along the VL above, starting at 1 (not Kabat).
All variants listed here change E61 of the VL, counted from its first residue.
Kd is apparent (estimated from mating counts) and averaged on the log scale over replicates with a signal. Smaller is tighter.
"no signal" marks a missing value. The strain was present, yet no cells mated with the target were sequenced in any replicate, which points to weak or no binding.

The variant E32K N37A E61Q gave no signal (0 of 3 replicates).
The variant E61G S62T Y97F gave 25 nM (3 of 3 replicates).
The variant R60A E61C L102E gave no signal (0 of 3 replicates).
The variant E32Y W56K E61S gave 150 nM (3 of 3 replicates).
The variant E61F Q95E P101F gave no signal (0 of 3 replicates).
The variant R34H N35V E61F gave 37 nM (3 of 3 replicates).
The variant Q27L E61S L102I gave no signal (0 of 3 replicates).
The variant Y31S E61F Q96F gave 1.5 µM (3 of 3 replicates).
The variant S26T S28E E61N gave 7.8 nM (3 of 3 replicates).
The variant S26N N35P E61M gave 1.5 µM (1 of 3 replicates).
The variant V39Y E61F P101M gave 67 µM (2 of 3 replicates).
The variant V39T T59H E61Q gave no signal (0 of 3 replicates).
The variant R60F E61C L100E gave no signal (0 of 3 replicates).
The variant W56G E61L P101T gave no signal (0 of 3 replicates).
The variant E61N S62G gave 130 nM (3 of 3 replicates).
The variant V29C W56H E61C gave 720 pM (3 of 3 replicates).
The variant S33F W56E E61D gave 320 µM (1 of 3 replicates).
The variant S25N S26E E61G gave 81 nM (3 of 3 replicates).
The variant Q27N V29Y E61S gave 47 nM (3 of 3 replicates).
The variant E32P E61W L100D gave 11 µM (2 of 3 replicates).
The variant S28R N35A E61I gave 300 nM (3 of 3 replicates).
The variant L30C E61W Q96G gave 45 nM (3 of 3 replicates).
The variant L30C V39T E61A gave no signal (0 of 3 replicates).
The variant Y31N W56F E61K gave 270 nM (1 of 3 replicates).
The variant E32T A40S E61W gave no signal (0 of 3 replicates).
The variant V29P K36T E61P gave 21 nM (3 of 3 replicates).
The variant R34K E61H S103R gave 320 nM (3 of 3 replicates).
The variant E61A S62P R99P gave 2.2 µM (3 of 3 replicates).
The variant S33C E61H L102A gave no signal (0 of 3 replicates).
The variant N35S E61A H98R gave 160 nM (3 of 3 replicates).
The variant S26Q V39D E61H gave no signal (0 of 3 replicates).

Excerpt, the first 5 entries:

| changes | Kd | detected |
|---|---|---|
| E32K N37A E61Q | no signal | 0/3 |
| E61G S62T Y97F | 25 nM | 3/3 |
| R60A E61C L102E | no signal | 0/3 |
| E32Y W56K E61S | 150 nM | 3/3 |
| E61F Q95E P101F | no signal | 0/3 |

Background: pairings of library AAYL50 with three empty control strains gave a value in 18% of cases (median 15 µM, 5th percentile 970 nM). Values in that range, when seen in few replicates, are hard to tell from nonspecific mating.

The measurements come from Engelhart et al. 2022 (doi:10.1038/s41597-022-01779-4) through the FLAb antibody collection.